SMILES strings stand for the structures.

The values that follow come from ChEMBL document CHEMBL6120995, “Orvinol-based opioid receptor antagonist fluorinated at C(20)-pharmacophore” (2025).

The test system of the assay is Mus musculus. Nature of the assay: Analgesic activity in morphine-induced male Swiss mouse assessed as latency of tail administered subcutaneously pretreated with compound for 30 mins followed by morphine treatment and measured after 30 to 120 mins by tail-flick test. The note with it: dose 0.1-10 mg/kg, route sc. Background: Hot-plate and tail-flick tests time the reaction to a heat stimulus.

As to `C=CCN1CC[C@]23c4c5ccc(O)c4O[C@H]2[C@@]2(O)CC[C@@]3(C[C@@H]2[C@](C)(O)C(F)(F)F)[C@H]1C5`, the Activity entry is “Dose-dependent-effect”.
